Molecular target: ECF-T (Lacticaseibacillus paracasei, UniProt Q035B4)

Protein sequences, listed by entry. Tags and fused reporters are not part of them.
UniProt Q035B4, whole entry: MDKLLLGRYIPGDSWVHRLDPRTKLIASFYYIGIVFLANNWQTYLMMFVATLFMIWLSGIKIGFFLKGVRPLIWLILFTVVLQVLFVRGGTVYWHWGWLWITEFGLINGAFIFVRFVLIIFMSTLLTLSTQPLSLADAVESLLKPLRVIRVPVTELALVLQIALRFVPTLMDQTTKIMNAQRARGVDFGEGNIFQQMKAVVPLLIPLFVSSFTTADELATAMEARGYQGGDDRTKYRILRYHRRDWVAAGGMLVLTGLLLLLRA
UniProt Q035X6, whole entry partner: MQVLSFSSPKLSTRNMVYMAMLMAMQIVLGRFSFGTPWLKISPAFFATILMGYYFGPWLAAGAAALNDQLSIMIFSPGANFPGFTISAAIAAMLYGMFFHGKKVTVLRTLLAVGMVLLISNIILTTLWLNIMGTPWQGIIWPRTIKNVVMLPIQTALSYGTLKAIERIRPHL
UniProt Q035B3, whole entry partner: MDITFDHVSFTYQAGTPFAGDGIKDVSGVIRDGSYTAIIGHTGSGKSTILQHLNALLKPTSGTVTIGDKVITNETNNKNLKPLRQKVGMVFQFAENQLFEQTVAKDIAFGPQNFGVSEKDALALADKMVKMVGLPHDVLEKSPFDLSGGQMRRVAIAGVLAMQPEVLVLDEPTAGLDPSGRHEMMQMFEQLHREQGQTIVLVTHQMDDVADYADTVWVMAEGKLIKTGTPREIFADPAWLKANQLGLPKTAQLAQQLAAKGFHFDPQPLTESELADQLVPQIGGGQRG
UniProt Q035B2, whole entry partner: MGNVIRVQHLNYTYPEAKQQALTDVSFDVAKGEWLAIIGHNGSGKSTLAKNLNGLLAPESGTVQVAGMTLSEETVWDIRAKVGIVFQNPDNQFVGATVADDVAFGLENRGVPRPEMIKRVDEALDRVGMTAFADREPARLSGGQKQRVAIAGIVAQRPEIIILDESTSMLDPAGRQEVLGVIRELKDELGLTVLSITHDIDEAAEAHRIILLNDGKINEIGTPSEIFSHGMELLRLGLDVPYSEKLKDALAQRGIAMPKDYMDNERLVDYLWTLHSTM

In the case of `O=C(O)c1cccc(-c2nc(-c3ccc(Cl)c(Cl)c3)c(-c3ccccc3)o2)c1`, the IC50 is reported as 5.1 µM and the “% inhibition at 50 µM” value (50 µM, Table 2, n ≥ 2, mean ± SD) is reported as 94.8 ± 3.6%.
